Earlier results as cited in patent publication US20030032580A1, “Use of agonists or antagonists of the 5-HT7 receptor to treat disorders of the bladder” (Synaptic Pharmaceutical Corporation, priority 1999, published 2003).

Protein sequences, listed by entry. Tags and fused reporters are not part of them. Residues count along the entry.
UniProt P28335, 33-458, species assumed: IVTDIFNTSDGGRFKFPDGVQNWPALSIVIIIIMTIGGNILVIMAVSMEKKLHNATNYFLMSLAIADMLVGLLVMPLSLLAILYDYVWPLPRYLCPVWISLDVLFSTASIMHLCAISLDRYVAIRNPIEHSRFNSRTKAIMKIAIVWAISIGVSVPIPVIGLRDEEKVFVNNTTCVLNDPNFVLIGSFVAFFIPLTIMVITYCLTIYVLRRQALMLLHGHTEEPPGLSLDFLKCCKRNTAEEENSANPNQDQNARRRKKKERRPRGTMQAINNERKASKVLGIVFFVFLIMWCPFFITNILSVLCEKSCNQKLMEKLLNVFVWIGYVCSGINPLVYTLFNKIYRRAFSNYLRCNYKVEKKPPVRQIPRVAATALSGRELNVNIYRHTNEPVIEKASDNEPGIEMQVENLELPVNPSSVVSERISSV

Biological target: 5-HT2C (Homo sapiens, UniProt P28335)
Details: Hoyer, 1989; Hoyer et al., 1994; cited from earlier work

COC(=O)[C@H]1[C@H]2C[C@H]3c4[nH]c5ccccc5c4CCN3C[C@H]2CC[C@@H]1O [rauwolscine]
pKB, 5-HT2C: 5.8
